One may read the IC50 as the concentration that gives 50% inhibition.

By UniProt entry, the sequences of proteins in these tests, tags left out. Residues count along the entry.
UniProt Q9NYK1, 27-1049 limits assumed: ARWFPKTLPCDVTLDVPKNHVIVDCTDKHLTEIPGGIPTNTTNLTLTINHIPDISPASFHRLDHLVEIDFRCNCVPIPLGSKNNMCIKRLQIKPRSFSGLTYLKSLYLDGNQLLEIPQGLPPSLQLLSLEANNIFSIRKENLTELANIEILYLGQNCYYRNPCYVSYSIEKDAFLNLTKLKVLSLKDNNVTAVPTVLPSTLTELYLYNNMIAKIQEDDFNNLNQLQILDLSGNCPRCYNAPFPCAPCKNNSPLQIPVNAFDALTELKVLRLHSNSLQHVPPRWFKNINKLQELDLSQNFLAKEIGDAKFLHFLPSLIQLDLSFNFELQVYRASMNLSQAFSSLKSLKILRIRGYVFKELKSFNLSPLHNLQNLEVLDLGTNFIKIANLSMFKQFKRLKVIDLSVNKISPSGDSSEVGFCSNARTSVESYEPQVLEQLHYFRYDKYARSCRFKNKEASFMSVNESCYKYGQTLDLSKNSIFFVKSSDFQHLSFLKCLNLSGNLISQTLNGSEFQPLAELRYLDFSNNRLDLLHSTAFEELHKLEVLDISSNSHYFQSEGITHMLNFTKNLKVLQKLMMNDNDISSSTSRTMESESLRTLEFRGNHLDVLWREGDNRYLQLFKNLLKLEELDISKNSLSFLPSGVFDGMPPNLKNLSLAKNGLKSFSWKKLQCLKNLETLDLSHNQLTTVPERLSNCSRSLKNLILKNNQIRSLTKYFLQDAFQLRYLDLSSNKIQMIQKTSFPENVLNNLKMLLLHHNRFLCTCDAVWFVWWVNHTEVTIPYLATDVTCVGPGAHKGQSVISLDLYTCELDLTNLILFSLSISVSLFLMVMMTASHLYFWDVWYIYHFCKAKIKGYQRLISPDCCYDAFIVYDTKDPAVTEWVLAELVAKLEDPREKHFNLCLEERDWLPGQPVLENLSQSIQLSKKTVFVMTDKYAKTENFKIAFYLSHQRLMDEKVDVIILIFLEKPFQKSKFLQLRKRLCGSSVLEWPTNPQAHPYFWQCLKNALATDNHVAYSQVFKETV
UniProt Q9NR97, 27-1041 limits assumed: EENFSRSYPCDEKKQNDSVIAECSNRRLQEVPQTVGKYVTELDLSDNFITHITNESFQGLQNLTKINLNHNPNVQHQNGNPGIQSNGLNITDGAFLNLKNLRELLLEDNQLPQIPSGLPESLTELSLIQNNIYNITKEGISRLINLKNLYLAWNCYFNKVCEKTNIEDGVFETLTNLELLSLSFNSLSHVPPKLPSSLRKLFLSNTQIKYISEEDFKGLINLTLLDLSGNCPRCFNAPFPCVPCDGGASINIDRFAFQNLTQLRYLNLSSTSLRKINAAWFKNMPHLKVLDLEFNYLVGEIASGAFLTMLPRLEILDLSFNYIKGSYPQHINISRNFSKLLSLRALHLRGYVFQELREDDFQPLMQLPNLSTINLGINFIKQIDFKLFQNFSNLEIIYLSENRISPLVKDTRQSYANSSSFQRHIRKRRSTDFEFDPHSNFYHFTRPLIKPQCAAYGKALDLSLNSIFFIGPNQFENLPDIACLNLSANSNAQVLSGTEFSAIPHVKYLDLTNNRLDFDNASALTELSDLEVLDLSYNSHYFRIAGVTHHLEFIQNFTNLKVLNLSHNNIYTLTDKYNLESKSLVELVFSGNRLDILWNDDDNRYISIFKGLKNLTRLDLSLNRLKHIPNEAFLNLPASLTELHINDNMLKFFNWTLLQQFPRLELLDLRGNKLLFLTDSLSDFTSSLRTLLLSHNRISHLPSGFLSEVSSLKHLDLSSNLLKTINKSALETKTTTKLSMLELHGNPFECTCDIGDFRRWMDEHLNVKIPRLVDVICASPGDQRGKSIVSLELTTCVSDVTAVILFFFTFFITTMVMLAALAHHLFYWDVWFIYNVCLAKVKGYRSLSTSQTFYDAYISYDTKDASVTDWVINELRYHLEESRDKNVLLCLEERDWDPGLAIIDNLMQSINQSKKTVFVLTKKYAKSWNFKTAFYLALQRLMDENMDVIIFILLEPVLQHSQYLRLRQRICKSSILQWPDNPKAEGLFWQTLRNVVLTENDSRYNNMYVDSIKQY
UniProt Q9NR96, 26-1032 limits assumed: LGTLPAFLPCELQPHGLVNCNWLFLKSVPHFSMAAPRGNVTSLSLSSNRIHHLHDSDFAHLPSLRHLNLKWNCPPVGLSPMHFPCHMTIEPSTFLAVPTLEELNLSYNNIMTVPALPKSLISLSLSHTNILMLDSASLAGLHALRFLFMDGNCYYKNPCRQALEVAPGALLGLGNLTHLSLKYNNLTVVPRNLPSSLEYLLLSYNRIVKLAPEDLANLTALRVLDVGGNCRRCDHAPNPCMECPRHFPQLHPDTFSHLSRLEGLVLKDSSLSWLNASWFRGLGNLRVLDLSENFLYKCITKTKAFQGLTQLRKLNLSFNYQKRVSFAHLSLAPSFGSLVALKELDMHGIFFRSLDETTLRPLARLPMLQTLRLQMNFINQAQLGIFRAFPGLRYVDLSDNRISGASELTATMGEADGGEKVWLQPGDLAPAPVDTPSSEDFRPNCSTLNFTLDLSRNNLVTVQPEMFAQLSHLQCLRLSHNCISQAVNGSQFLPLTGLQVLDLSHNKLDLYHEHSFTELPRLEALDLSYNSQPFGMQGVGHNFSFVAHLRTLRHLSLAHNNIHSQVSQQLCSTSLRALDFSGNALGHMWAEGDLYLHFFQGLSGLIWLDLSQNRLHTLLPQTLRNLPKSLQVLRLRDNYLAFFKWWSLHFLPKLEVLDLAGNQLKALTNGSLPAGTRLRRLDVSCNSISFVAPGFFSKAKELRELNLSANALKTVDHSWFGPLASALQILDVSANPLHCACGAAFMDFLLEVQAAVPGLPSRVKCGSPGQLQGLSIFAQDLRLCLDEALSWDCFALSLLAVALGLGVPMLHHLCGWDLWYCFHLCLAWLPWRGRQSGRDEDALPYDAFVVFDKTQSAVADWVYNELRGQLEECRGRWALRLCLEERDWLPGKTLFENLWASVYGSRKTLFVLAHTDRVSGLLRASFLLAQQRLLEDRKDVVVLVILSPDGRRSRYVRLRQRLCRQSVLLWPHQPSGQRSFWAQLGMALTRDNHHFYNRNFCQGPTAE

One experiment deals with TLR7 (Homo sapiens, UniProt Q9NYK1). Nature of the experiment: Human PBMC, IFN-α readout using ORN R-1362+DOTAP (TLR7 antagonism). The note with it: read-out: TLR7 IC50, Experimental; in vitro testing as described in Example 63. From the text:
(§1) Peripheral blood mononuclear cell (PBMC) buffy coat preparations from healthy male and female human donors were obtained from the Institute for Hemostaseology and Transfusion Medicine of the University of Düsseldorf (Germany).
(§2) PBMC were purified by centrifugation over Ficoll-Hypaque (Sigma). Purified PBMC were washed twice with 1×PBS and resuspended in RPMI 1640 culture medium supplemented with 5% (v/v) heat-inactivated human AB serum (BioWhittaker, Belgium) or 10% (v/v) heat-inactivated fetal calf serum (FCS), 1.5 mM L-glutamine, 100 U/ml penicillin and […] streptomycin (all from Sigma, Deisenhofen, Germany).
(§3) Freshly isolated PBMC were resuspended at a concentration of 3×10^6/ml to 5×10^6/ml with RPMI 1640 culture medium and added to 96-well round-bottomed plates (150 μl/well) which had previously received nothing or selected concentrations (typically 10 μM-0.085 nM as 7-fold serial dilutions) of small molecule. To assay antagonist reaction for TLR9, 1 μM CpG oligodeoxynucleotide (ODN) 2395 ([…]; SEQ ID NO:3) was added to wells containing small molecules. To assay antagonist reaction for TLR7 and TLR8, 0.5 μM oligoribonucleotide (ORN) R-1362 ([…]; SEQ ID NO:4) complexed to 5 μg/ml DOTAP was added to wells containing small molecules. To calculate response to CpG ODN 2395 alone or ORN R-1362+DOTAP alone, wells without small molecules were stimulated with CpG ODN 2395 or ORN R-1362+DOTAP.
(§4) Cells were cultured in a humidified incubator at 37° C. for 16 h. Culture supernatants were then collected and, if not used immediately, frozen at −20° C. until required.
(§5) Amounts of cytokines in the supernatants were assessed using enzyme-linked immunosorbent assays (ELISA) specific for IFN-α or TNF-α using commercially available antibodies or kits from BD Pharmingen or Diaclone, respectively. IFN-α readout using CpG 2395 was used to measure TLR9 response. IFN-α readout using ORN R-1362+DOTAP was used to measure TLR7 response. TNF-α release using R-1362 complexed to DOTAP was used to measure TLR8-mediated immune response.

The target of another experiment is TLR8 (Homo sapiens, UniProt Q9NR97). Nature of the experiment: Human PBMC, TNF-α release using ORN R-1362+DOTAP (TLR8 antagonism). The note with it: read-out: TLR8 IC50, Experimental; in vitro testing as described in Example 63.
Excerpt: as §1, §2
Freshly isolated PBMC were resuspended at a concentration of 3×10^6/ml to 5×10^6/ml with RPMI 1640 culture medium and added to 96-well round-bottomed plates (150 μl/well) which had previously received nothing or selected concentrations (typically 10 μM-0.085 nM as 7-fold serial dilutions) of small molecule. […]
Amounts of cytokines in the supernatants were assessed using enzyme-linked immunosorbent assays (ELISA) specific for IFN-α or TNF-α using commercially available antibodies or kits from BD Pharmingen or Diaclone, respectively. IFN-α readout using CpG 2395 was used to measure TLR9 response. IFN-α readout using ORN R-1362+DOTAP was used to measure TLR7 response. […]

Another experiment deals with TLR9 (Homo sapiens, UniProt Q9NR96). In words: Human PBMC, IFN-α readout using CpG ODN 2395 (TLR9 antagonism). The following applies: read-out: TLR9 IC50, Experimental; in vitro testing as described in Example 63.
Excerpt: as §1, §2, §3, §4, §5

Molecules are shown by their SMILES.

As for `CN1CCN(c2nc(NCCN3CCOCC3)c3cc(-c4ccccc4)ccc3n2)CC1`, the IC50 on TLR7 worked out at 630 nM; on TLR8, 500 nM; at TLR9, 100 nM.

On to `CN1CCN(c2nc(-c3ccccc3)nc3ccc(NCCN4CCOCC4)cc23)CC1`, for which the IC50 stood at 170 nM on TLR7 and 53 nM at TLR9.

Regarding `CN1CCN(c2ccc3c(NCCN4CCOCC4)nc(-c4ccccc4)nc3c2)CC1`, the results for the IC50 on TLR7, at TLR8 and at TLR9 were 24 nM, 29 nM and 38 nM, respectively.

The values are drawn from US20100160314A1, “Small Molecule Inhibitors of Toll-Like Receptor 9” (priority 2006, published 2010).
